# Patent US11306071B2, “Heterocyclic compounds as adenosine antagonists” (Nuvation Bio Inc., priority 2019, dated 2022)
# The chains behind the UniProt entries cited, without tags or fusion partners.
# UniProt P30542, whole entry: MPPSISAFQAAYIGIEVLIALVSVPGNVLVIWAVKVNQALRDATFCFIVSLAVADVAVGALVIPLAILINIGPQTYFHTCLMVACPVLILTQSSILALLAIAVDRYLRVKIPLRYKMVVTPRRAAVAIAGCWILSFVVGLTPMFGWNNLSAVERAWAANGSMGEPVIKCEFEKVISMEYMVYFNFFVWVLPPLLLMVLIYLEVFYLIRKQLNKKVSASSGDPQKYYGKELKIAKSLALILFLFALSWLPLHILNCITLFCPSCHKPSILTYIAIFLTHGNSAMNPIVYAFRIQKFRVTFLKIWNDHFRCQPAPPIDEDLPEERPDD
# Columns and labels:
# [1] = target: adenosine A2a (human) membrane (Homo sapiens (Human), UniProt P29274); assay: A2A adenosine receptor radioligand binding assay ([3H] CGS-21680); details: read-out: A2a binding IC50; radioligand [3H] CGS-21680 6 nM
# Description: A second A2A adenosine receptor radioligand binding assay protocol was used. The protocol used adenosine A2a (human) membrane (PerkinElmer RBHA2AM400UA) at a concentration of 5 μg/well/100 μl and the radioligand [3H] CGS-21680 (Cat No. PerkinElmer-NET1021250UC) at a final concentration of 6 nM. Testing compounds were diluted with DMSO to make 8-point 4-fold serial dilution, starting at 0.2 mM. CGS-15943 was the reference compound. 1 μl of compounds/high control/low control was transferred to the assay plate according to a plate map, followed by 100 μl of membrane stocks and 100 μl of radioligand, in assay buffer (50 mM Tris-HCl, 10 mM MgCl2, 1 mM EDTA, pH 7.4). The plate was sealed and incubated at RT for 2 hours. Unifilter-96 GF/C filter plates (Perkin Elmer Cat #6005174) were soaked with 50 μl of 0.3% PEI per well for at least 0.5 hour at room temperature. […] After drying, the bottom of the filter plate wells was sealed, 50 μl of Perkin Elmer Microscint 20 cocktail was added, and the top of the filter plate was sealed. ^3H trapped on the filter was counted using Perkin Elmer MicroBeta2 Reader. The data were analyzed with GraphPad Prism 5 to obtain binding IC50 values. The “Inhibition [% Control]” was calculated using the equation: % Inh=(1-Background subtracted Assay value/Background subtracted HC value)*100, where HC is high control.
# [2] = target: adenosine A1 (human) membrane (Homo sapiens (Human), UniProt P30542); assay: A1 adenosine receptor radioligand binding assay ([3H] DPCPX); details: 200 nM compound; radioligand [3H] DPCPX 1 nM
# Description: A second A1 adenosine receptor radioligand binding assay protocol was used. The protocol used adenosine A1 (human) membrane (PerkinElmer ES-010-M400UA) at a concentration of 2.5 μg/well/100 μl and the radioligand [3H] DPCPX (Cat No. PerkinElmer-NET974250UC) at a final concentration of 1 nM. Testing compounds were tested at a final concentration of 200 nM. CGS-15943, the reference compound, was tested in an 8-point 4-fold serial dilution, starting at a top concentration of 1 μM. 1 μl of compounds/high control/low control was transferred to the assay plate according to a plate map, followed by 100 μl of membrane stocks and 100 μl of radioligand, in assay buffer (25 mM HEPES, 5 mM MgCl2, 1 mM CaCl2, 100 mM NaCl, pH 7.4). The plate was sealed and incubated at RT for 1 hour. […] After drying, the bottom of the filter plate wells was sealed, 50 μl of Perkin Elmer Microscint 20 cocktail was added, and the top of the filter plate was sealed. ^3H trapped on the filter was counted using Perkin Elmer MicroBeta2 Reader. The data were analyzed with GraphPad Prism 5 to obtain binding IC50 values for the reference compound. The “Inhibition [% Control]” was calculated using the equation: % Inh=(1-Background subtracted Assay value/Background subtracted HC value)*100, where HC is high control.
compound,measurement,setting,value
C[C@@H](NC(=O)c1nc(-c2ccc3ncccc3c2)c(-c2ccccc2)nc1N)c1cnccn1,IC50,[1],2 nM
same,A1 binding inhibition at 200 nM (%),[2],92%
